Patent US20260130907A1 (DANA-FARBER CANCER INSTITUTE, INC., priority 2022, published 2026)

Assays:
B cell lymphoma 6 (BCL6) = B cell lymphoma 6 (BCL6) (Homo sapiens, UniProt P41182); assay: HiBiT cellular degradation assay in SU-DHL-4 cells; assay type: cell-based; settings: for BCL6 degrader status (in words): conclusion drawn from Table 1; for DC50: read-out: HiBiT SU-DHL-4 DC50, concentration to reach 50% degradation of endogenous SmBiT-tagged BCL6, SU-DHL-4 cells, 24 hours of compound treatment
Kinetic solubility = settings: for Kinetic solubility @pH 7.4: 50 mM phosphate buffer pH 7.4, 24 hours at room temperature
[1] = Metabolic stability in human liver microsome; settings: human liver microsomes with NADPH, 37° C., 0-60 min

Compound	BCL6 degrader status (in words) (B cell lymphoma 6 (BCL6))	DC50 (B cell lymphoma 6 (BCL6))	Kinetic solubility @pH 7.4 (Kinetic solubility)	Kinetic solubility (FaSSIF) (Kinetic solubility; FaSSIF)	Kinetic solubility (FeSSIF) (Kinetic solubility; FeSSIF)	Human Liver Microsome Stability Clint [1]
CNC(=O)COc1cc2cc(Nc3nc(N4CC(C)C(F)(F)C(CN)C4)ncc3Cl)ccc2n(C)c1=O (stereo not shown)	degraders of BCL6	39 nM	<1.56 μM	50.8 µM	244 µM	6.9 µL/min/mg
CC1CN(c2ncc(Cl)c(Nc3ccc4c(c3)n(CCC(C)(C)O)c(=O)n4C)n2)CC(CCN)C1(F)F (stereo not shown)	degraders of BCL6	12 nM	403.5 μM	–	–	4.3 µL/min/mg
